This assay has as its target T1, MAC-1 (Homo sapiens, UniProt P05107+P11215).
T1 construct: endogenous in cells
Briefly: Inhibition of MAC-1 mediated adhesion of FMLP-stimulated neutrophils to KLH-coated plastic. The format is cell-based.

SMILES strings stand for the structures. A value given as a limit tells only on which side of the number the result lay.

Broadly, the IC50 is the concentration at which inhibition is half-maximal.

On to `COc1cc2sc(C(=O)Nc3nn[nH]n3)c(Oc3ccccc3)c2cc1OC` [Example 4, 5,6-Dimethoxy-3-phenoxy-N-1H-tetrazol-5-yl-benzo[b]thiophene-2-carboxamide], for which the IC50 was less than 3300 nM.

Turning to `COc1cc2sc(C(=O)Nc3nn[nH]n3)c(OC(C)C)c2cc1OC` [Example 3, 5,6-Dimethoxy-3-(1-methylethoxy)-N-1H-tetrazol5-yl-benzo[b]thiophene-2-carboxamide], the IC50 amounted to 1300 nM.

As to `COc1ccc2c(OC(C)C)c(C(=O)Nc3nn[nH]n3)sc2c1` [Example 2, 6-Methoxy-3-(1-methylethoxy)-N-1H-tetrazol-5-yl-benzo[b]thiophene-2-carboxamide], the IC50 was less than 3300 nM.

For the origin of these results see patent publication US5426113A, “Method of preventing ulcer formation caused by nonsteroidal antiinflammatory drugs employing tetrazol-benzothiophene carboxamide compounds” (Warner-Lambert Company, priority 1994, dated 1995).
